Reference: patent EP2737897A2, “Anti-inflammatory botanical products for the treatment of metabolic syndrome and diabetes” (Metaproteomics, LLC, priority 2005, dated 2007)
Marks after values point to notes of the source that are not given here.

Test system: KK-Ay diabetic mice
Conditions: 1.0 mg/kg-day by gavage, three days

With `CN(CCOc1ccc(CC2SC(=O)NC2=O)cc1)c1ccccn1` (centres unmarked) [Rosiglitazone] the Glucose (non-fasting serum) was 80.3# % Pretreatment and the Insulin (serum) was 88.7 % Pretreatment.
